## Cyclic peptide permeability, from CycPeptMPDB

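The data file gives no further conditions (lipid, pH, time, direction or concentration), and values from different papers need not be comparable. The list need not hold all peptides of the study. Peptides that the database sets to -10, its floor, are left out.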

PAMPA is the parallel artificial membrane permeability assay, which has no cells and reads passive diffusion. Permeability is given as log10 of P in cm/s; higher (less negative) is more permeable.

- CCC[C@H](C)[C@@H](OC)[C@@H](C)[C@@H]1C/C=C(\C)C(=O)O[C@H]([C@@H](C)CC)C(=O)N[C@@H](C)C(=O)N(C)[C@H](Cc2ccccc2)C(=O)N(C)CC(=O)N[C@@H]([C@@H](C)CC)C(=O)N(C)[C@@H](C)C(=O)O1: PAMPA -6.09 (log10 cm/s)
- CCC[C@H](C)[C@H]1OC(=O)[C@H](C)N(C)C(=O)[C@H]([C@@H](C)CC)NC(=O)CN(C)C(=O)[C@@H](Cc2ccccc2)N(C)C(=O)[C@H](C)NC(=O)[C@@H]([C@@H](C)CC)OC(=O)/C(C)=C/C[C@H](OC)[C@@H]1C: PAMPA -5.68 (log10 cm/s)
- CCC[C@H](C)[C@H]1OC(=O)[C@H](C)N(C)C(=O)[C@H]([C@@H](C)CC)NC(=O)CN(C)C(=O)[C@@H](Cc2ccccc2)N(C)C(=O)[C@H](C)NC(=O)[C@@H]([C@@H](C)CC)OC(=O)/C(C)=C/C[C@H](O)[C@@H]1C: PAMPA -4.47 (log10 cm/s)
- CCC[C@H](C)[C@H]1OC(=O)[C@@H](C)N(C)C(=O)[C@H]([C@@H](C)CC)NC(=O)CN(C)C(=O)[C@@H](Cc2ccccc2)N(C)C(=O)[C@H](C)NC(=O)[C@@H]([C@@H](C)CC)OC(=O)/C(C)=C/C[C@H](O)[C@@H]1C: PAMPA -4.87 (log10 cm/s)
- CCC[C@H](C)[C@H]1OC(=O)[C@H](C)N(C)C(=O)[C@H]([C@@H](C)CC)NC(=O)CNC(=O)[C@@H](Cc2ccccc2)N(C)C(=O)[C@H](C)NC(=O)[C@@H]([C@@H](C)CC)OC(=O)/C(C)=C/C[C@H](O)[C@@H]1C: PAMPA -4.91 (log10 cm/s)
- CCC[C@H](C)[C@H]1OC(=O)[C@H](C)N(C)C(=O)[C@H]([C@@H](C)CC)NC(=O)CN(C)C(=O)[C@@H](Cc2ccccc2)N(C)C(=O)[C@@H](C)NC(=O)[C@@H]([C@@H](C)CC)OC(=O)/C(C)=C/C[C@H](O)[C@@H]1C: PAMPA -5.39 (log10 cm/s)
- CCC[C@H](C)[C@H]1OC(=O)[C@H](C)N(C)C(=O)[C@H]([C@@H](C)CC)NC(=O)CN(C)C(=O)[C@@H](Cc2ccccc2)NC(=O)[C@H](C)NC(=O)[C@@H]([C@@H](C)CC)OC(=O)/C(C)=C/C[C@H](O)[C@@H]1C: PAMPA -5.42 (log10 cm/s)

Source: CycPeptMPDB (Li et al. 2023), which took these values from Kaneda et al. 2018, doi:10.1021/acsmedchemlett.8b00028.